Literature values as cited in patent publication US11883631B2 (priority 2015, dated 2024).

Conditions: 35 adults; between start of propofol infusion and incision; remifentanil by target controlled infusion

CC(C)c1cccc(C(C)C)c1O [propofol]
subjects in whom hypotension was treated: 7 subjects
